The numbers were not newly measured in patent US6462193B1, “Hydroxyazepanes as inhibitors of glycosidase and HIV protease” (The Scripps Research Institute, priority 1999, dated 2002), which cites them from elsewhere.

Each structure is given as a SMILES string.

One may read the Ki as the dissociation constant of the complex between target and ligand, obtained from inhibition or displacement.

For the data set, the target named is T1, α-mannosidase (Canavalia ensiformis, UniProt C0HJB3).
T1 sequence (C0HJB3 1-981): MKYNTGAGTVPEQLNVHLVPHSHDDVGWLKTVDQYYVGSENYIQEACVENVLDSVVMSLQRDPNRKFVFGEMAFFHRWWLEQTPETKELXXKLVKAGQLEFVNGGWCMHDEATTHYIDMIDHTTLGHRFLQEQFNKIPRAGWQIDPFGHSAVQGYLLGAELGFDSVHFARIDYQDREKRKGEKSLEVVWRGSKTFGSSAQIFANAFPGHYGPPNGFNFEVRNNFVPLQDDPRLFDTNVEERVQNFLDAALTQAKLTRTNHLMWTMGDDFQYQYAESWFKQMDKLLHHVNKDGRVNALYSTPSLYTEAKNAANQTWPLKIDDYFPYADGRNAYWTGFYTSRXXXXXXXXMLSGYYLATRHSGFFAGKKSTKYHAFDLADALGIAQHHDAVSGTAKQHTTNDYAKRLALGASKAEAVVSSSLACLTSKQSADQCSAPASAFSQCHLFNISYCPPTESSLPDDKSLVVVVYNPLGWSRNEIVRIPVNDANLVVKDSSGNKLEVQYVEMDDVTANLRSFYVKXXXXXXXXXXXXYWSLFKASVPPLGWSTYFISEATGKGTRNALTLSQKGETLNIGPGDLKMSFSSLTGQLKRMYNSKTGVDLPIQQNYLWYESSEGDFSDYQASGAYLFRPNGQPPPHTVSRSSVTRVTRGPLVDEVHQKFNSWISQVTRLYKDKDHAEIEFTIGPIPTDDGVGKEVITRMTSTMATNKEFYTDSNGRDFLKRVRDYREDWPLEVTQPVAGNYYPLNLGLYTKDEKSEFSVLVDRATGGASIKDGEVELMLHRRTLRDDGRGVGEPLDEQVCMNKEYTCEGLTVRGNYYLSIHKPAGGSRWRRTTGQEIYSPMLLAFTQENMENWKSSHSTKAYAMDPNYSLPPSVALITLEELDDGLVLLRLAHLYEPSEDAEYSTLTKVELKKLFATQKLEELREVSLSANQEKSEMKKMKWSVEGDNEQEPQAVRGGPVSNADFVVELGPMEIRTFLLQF
The settings on record: literature value (Tulsiani et al. 1982); read-out: Ki as inhibitor of α-mannosidase; cited from earlier work.

As for `OC[C@H]1NC[C@@H](O)[C@@H](O)[C@@H]1O` [1-deoxymannojirimycin], the Ki is 150 µM.
